Test results from patent US10208087B2, “Peptides” (Hoffmann-La Roche Inc., priority 2014, dated 2019).
Where a name gives a salt, the structure may show the parent alone.

Chains of the proteins cited; added tags and fusions are not shown. Residues count along the entry.
UniProt P56817, 46-501: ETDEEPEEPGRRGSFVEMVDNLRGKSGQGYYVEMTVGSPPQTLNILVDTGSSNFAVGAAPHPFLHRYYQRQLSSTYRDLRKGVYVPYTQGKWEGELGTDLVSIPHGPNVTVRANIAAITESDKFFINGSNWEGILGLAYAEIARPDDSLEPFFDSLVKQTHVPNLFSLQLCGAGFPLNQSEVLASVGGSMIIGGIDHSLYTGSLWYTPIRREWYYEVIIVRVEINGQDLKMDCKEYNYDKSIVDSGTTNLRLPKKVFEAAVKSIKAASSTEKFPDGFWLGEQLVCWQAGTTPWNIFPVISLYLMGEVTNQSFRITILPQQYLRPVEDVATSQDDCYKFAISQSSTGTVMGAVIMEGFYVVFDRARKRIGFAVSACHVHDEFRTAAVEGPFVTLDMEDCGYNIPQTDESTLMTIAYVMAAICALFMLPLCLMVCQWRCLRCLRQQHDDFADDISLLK

Biological target: T1, BACE1 (Homo sapiens, UniProt P56817)
T1 construct: Human HEK293 cells which are stably transfected with a vector expressing a cDNA of the human APP wt gene (APP695); endogenous in cells; host or cells: HEK293 cells stably transfected with human APP695 wt
Experiment: Cellular Aβ-lowering Assay
Assay type: cell-based
Protocol: The compounds were investigated in accordance with the test given hereinafter. Cellular Aβ-lowering Assay: Human HEK293 cells which are stably transfected with a vector expressing a cDNA of the human APP wt gene (APP695) were used to assess the potency of the compounds in a cellular assay. […] After blocking of non-specific binding sites with e.g. 1% BSA and washing, the culture supernatants were added in suitable dilutions together with a horseradish peroxidase-coupled Aβ detection antibody (e.g., antibody 4G8, Senetek, Maryland Heights, Mo.) and incubated for 5 to 7 hrs. Subsequently the wells of the microtiter plate were washed extensively with Tris-buffered saline containing 0.05% Tween 20 and the assay was developed with tetramethylbenzidine/H2O2 in citric acid buffer. After stopping the reaction with one volume 1 N H2SO4 the reaction was measured in an ELISA reader at 450 nm wavelength. The concentrations of Aβ in the culture supernatants were calculated from a standard curve obtained with known amounts of pure Aβ peptide.

Structure (SMILES)	IC50
CCCCCCCCCCCCCCCC(=O)NCCCC[C@H](NC(=O)[C@H](Cc1ccccc1)NC(=O)[C@H](CCC(=O)O)NC(=O)[C@H](C)NC(=O)[C@@H](NC(=O)C[C@H](O)[C@H](CC(C)C)NC(=O)[C@H](CC(N)=O)NC(=O)[C@@H](NC(=O)[C@H](CCC(=O)O)NC(=O)CNC(=O)CNC(=O)CNC(=O)[C@H](CC(C)C)NC(=O)[C@@H]1CCCN1C(=O)[C@@H](NC(=O)[C@H](Cc1ccccc1)NC(=O)[C@H](Cc1ccc(O)cc1)NC(=O)[C@@H]1CCCN1C(=O)[C@@H](N)Cc1ccc(O)cc1)[C@@H](C)CC)C(C)C)C(C)C)C(N)=O [Example 1, Tyr-Pro-Tyr-Phe-Ile-Pro-Leu-Gly-Gly-Gly-Glu-Val-Asn-Sta-Val-Ala-Glu-Phe-Lys(Palmityl)-NH2 x TFA]	120 nM
CCCCCCCCCCCCCCCC(=O)NCCCC[C@H](NC(=O)[C@H](Cc1ccccc1)NC(=O)[C@H](CCC(=O)O)NC(=O)[C@H](C)NC(=O)[C@@H](NC(=O)C[C@H](O)[C@H](CC(C)C)NC(=O)[C@H](CC(N)=O)NC(=O)[C@@H](NC(=O)[C@H](CCC(=O)O)NC(=O)CNC(=O)CNC(=O)[C@H](C)NC(=O)[C@H](CC(C)C)NC(=O)[C@@H]1CCCN1C(=O)[C@@H](NC(=O)[C@H](Cc1ccccc1)NC(=O)[C@H](Cc1ccc(O)cc1)NC(=O)[C@@H]1CCCN1C(=O)[C@@H](N)Cc1ccc(O)cc1)[C@@H](C)CC)C(C)C)C(C)C)C(N)=O [Example 2, Tyr-Pro-Tyr-Phe-Ile-Pro-Leu-Ala-Gly-Gly-Glu-Val-Asn-Sta-Val-Ala-Glu-Phe-Lys(Palmityl)-NH2 x TFA]	53 nM
CCCCCCCCCCCCCCCC(=O)NCCCC[C@H](NC(=O)[C@H](Cc1ccccc1)NC(=O)[C@H](CCC(=O)O)NC(=O)[C@H](C)NC(=O)[C@@H](NC(=O)C[C@H](O)[C@H](CC(C)C)NC(=O)[C@H](CC(N)=O)NC(=O)[C@@H](NC(=O)[C@H](CCC(=O)O)NC(=O)[C@H](CO)NC(=O)CNC(=O)CNC(=O)[C@H](CC(C)C)NC(=O)[C@@H]1CCCN1C(=O)[C@@H](NC(=O)[C@H](Cc1ccccc1)NC(=O)[C@H](Cc1ccc(O)cc1)NC(=O)[C@@H]1CCCN1C(=O)[C@@H](N)Cc1ccc(O)cc1)[C@@H](C)CC)C(C)C)C(C)C)C(N)=O [Example 10, Tyr-Pro-Tyr-Phe-Ile-Pro-Leu-Gly-Gly-Ser-Glu-Val-Asn-Sta-Val-Ala-Glu-Phe-Lys(Palmityl)-NH2 x TFA]	53 nM
